Measurements from patent US11376249B2 (priority 2017, dated 2022).

The chains behind the UniProt entries cited, without tags or fusion partners.
UniProt P31645, whole entry, species assumed: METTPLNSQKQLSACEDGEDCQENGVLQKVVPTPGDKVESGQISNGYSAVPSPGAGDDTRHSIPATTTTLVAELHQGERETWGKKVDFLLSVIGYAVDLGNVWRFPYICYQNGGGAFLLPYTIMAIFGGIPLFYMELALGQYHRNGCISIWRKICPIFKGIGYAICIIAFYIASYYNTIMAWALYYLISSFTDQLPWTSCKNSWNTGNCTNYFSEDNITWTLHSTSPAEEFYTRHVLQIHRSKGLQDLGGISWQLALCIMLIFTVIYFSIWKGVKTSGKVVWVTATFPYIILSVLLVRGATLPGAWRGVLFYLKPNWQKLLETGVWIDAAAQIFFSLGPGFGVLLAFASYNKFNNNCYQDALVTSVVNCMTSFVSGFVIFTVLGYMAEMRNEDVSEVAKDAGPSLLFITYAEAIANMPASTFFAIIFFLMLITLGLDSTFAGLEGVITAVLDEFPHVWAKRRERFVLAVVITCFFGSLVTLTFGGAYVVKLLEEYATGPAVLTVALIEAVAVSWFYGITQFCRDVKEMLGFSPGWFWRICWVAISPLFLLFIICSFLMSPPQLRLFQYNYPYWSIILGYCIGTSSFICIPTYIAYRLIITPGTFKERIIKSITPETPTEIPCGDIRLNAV

Target: SERT (Homo sapiens, UniProt P31645)
Experiment: biochemical
Assay type: binding
Settings: read-out: inhibition SERT

O=C1CN2c3c(cccc3[C@@H]3CN(CCCC(=O)c4ccc(F)cc4)CC[C@@H]32)N1 [Example 1, 4-((6bR,10aS)-2-oxo-2,3,6b,9,10,10a-hexahydro-1H,7H-pyrido[3′,4′:4,5]pyrrolo[1,2,3-de]quinoxalin-8-yl)-1-(4-fluoro-phenyl)-butan-1-one]
inhibition at 0.24 µM: 44%
